# Ab-14 heavy chain CDR variants: yeast mating affinities

Source: Li et al. 2023 (doi:10.1038/s41467-023-39022-2), MIT Lincoln Laboratory and A-Alpha Bio; data file from the FLAb repository.

The target is the same throughout: PDVDLGDISGINAS, from the HR2 region of SARS-CoV-2 spike.

Parent scFv Ab-14: VH joined to VL by the linker GGGGSGGGGSGGGGS. Changes lie in the heavy chain CDRs alone.
VH: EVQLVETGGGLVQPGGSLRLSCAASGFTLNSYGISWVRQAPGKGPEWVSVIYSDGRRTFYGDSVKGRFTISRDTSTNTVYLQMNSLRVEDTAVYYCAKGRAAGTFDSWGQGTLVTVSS
VL: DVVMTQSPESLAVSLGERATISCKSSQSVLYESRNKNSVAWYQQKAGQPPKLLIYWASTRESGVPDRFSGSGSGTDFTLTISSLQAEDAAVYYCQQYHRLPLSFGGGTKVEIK

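The parent was found by panning a naive human phage display library on the peptide. The variants were designed computationally from a first round of random CDR variants and then made and measured. Their group label is 14H_En_Gen (En: ensemble of fine-tuned language models; Gen: genetic algorithm). Affinity was read by AlphaSeq, a pooled yeast mating assay with surface-displayed partners. The frequency of each diploid, read from paired DNA barcodes, reflects how well the two displayed proteins bind. Scores were corrected for input abundance and mapped to Kd with protein pairs of known affinity run in the same pool. There are six technical replicates.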

Each variant is given by its three heavy chain CDRs, as the data file delimits them; those of the parent are GFTLNSYGIS, VIYSDGRRTFYGDSVK, GRAAGTFDS. Scale: log10 of Kd in nM, estimated from mating counts; low values are strong binders. Replicates are averaged; those with no signal do not enter the mean. "n.d." means that the variant was in the library but no mating with the target was seen in that replicate; the authors take this as a sign of poor binding, and no number exists.

CDR-H1,CDR-H2,CDR-H3,"log10 Kd, replicates",mean log10 Kd (nM),control signals
GFDLDEYGIS,VIYADGRRTAYADDVK,GENAGTFDI,-0.27 -0.51 -0.28 -0.82 -0.56 -0.43,-0.48,0 of 18
GFDLDEYGIS,VIYADGKRTYYADSVK,GNVAGTFDL,0.04 0.30 -0.28 0.27 -0.08 0.00,0.04,0 of 18
GFDLNEYGIS,VIYADGKRTAYVDSVK,GNVAGTFDL,-0.04 -0.29 -0.45 -0.65 -0.65 -0.19,-0.38,0 of 18
GFDLDEYGIS,VIYADGKRTYYADSVK,GETAGTFDV,-0.31 0.02 -0.78 -0.56 -0.40 -0.31,-0.39,0 of 18
GFDLDEYGIS,VIYADGMRTAYSDDVK,GENAGTFDV,n.d. n.d. n.d. n.d. n.d. n.d.,n.d.,0 of 18
GFDLNEYGIS,VIYADGMRTAYADNVK,GETAGTFDQ,-0.06 -0.03 1.13 -0.14 -0.16 0.18,0.15,0 of 18
GFDLNEYGIS,VIYADGVRTYYADSVK,GNVAGTFDV,-0.12 -0.11 -0.43 -0.33 -0.36 -0.18,-0.26,0 of 18
GFDLNEYGIS,VIYADGKRTAYSDKVK,GNVAGTFDV,-0.27 -0.41 -0.56 -0.66 -0.59 -0.35,-0.47,1 of 18 (1.70)
GFDLNEYGIS,VIYADGQRTAYADSVK,GQTAGTFDV,0.12 0.06 -0.19 -0.52 -0.23 0.01,-0.13,0 of 18
GFDLDEYGIS,VIYADGQRTAYADDVK,GETAGTFDV,-0.40 -0.72 -0.66 -0.81 -0.68 -0.59,-0.64,0 of 18
GFDLDEYGIS,VIYADGMRTAYADSVK,GQNAGTFDV,-0.23 -0.38 -0.35 -0.53 -0.25 0.00,-0.29,1 of 18 (1.76)
GFDLNEYGIS,VIYADGVRTAYADAVK,GENAGTFDV,-0.11 -0.44 -0.48 -0.63 0.29 -0.42,-0.30,0 of 18
GFDLNEYGIS,VIYADGRRTAYTDSVK,GEVAGTFDV,n.d. n.d. n.d. n.d. n.d. 1.26,1.26,0 of 18
GFDLNEYGIS,VIYADGMRTAYADDVK,GEVAGTFDA,-0.62 -0.77 -0.66 -0.65 -0.72 -0.62,-0.68,0 of 18
GFDLDEYGIS,VIYADGMRSYYADSVK,GNVAGTFDV,0.47 -0.37 -0.15 -0.28 -0.02 0.18,-0.03,0 of 18
GFDLNEYGIS,VIYADGMRTYYADSVK,GSNAGTFDV,-0.18 -0.03 -0.43 -0.30 -0.02 -0.10,-0.18,1 of 18 (1.81)
GFDLNEYGIS,VIYADGRRTAYTDSVK,GNNAGTFDI,-0.75 -0.28 -0.83 -0.75 -0.67 -0.43,-0.62,0 of 18
GFDLNEYGIS,VIYADGSRTAYVDSVK,GNVAGTFDQ,-0.99 -0.58 -0.69 -0.74 -0.83 -0.68,-0.75,0 of 18
GFDLDEYGIS,VIYADGMRTFYSDSVK,GNVAGTFDV,-0.18 -0.40 -0.63 -0.45 -0.44 -0.25,-0.39,0 of 18
GFDLDEYGIS,VIYADGIRTAYADSVK,GNVAGTFDV,-0.13 -0.36 0.07 -0.35 -0.64 -0.29,-0.28,0 of 18
GFDLDEYGIS,VIYADGMRTAYADSVK,GQVAGTFDV,-0.76 -0.61 -1.19 -0.58 -1.03 -0.73,-0.81,0 of 18
GFDLEEYGIS,VIYADGMRTAYADSVK,GNVAGTFDQ,0.99 -0.39 -0.64 -0.66 -0.55 -0.58,-0.30,0 of 18
GFDLDEYGIS,VIYADGMRTAYSDSVK,GTNAGTFDM,-0.70 -0.69 -0.93 -1.10 -1.10 -0.54,-0.84,0 of 18
GFDLDEYGIS,VIYADGKRTAYSDSVK,GGNAGTFDV,-0.02 -0.09 -0.17 -0.31 -0.15 0.37,-0.06,1 of 18 (2.10)
GFDLNEYGIS,VIYADGKRTAYIDSVK,GNNAGTFDI,-1.49 -1.70 -1.71 -1.65 -2.06 -0.98,-1.60,0 of 18
GFDLNEYGIS,VIYADGKRTAYADKVK,GEVAGTFDV,-0.39 -0.42 -0.63 -0.32 -0.69 -0.44,-0.48,0 of 18
GFDLNEYGIS,VIYADGRRTYYADSVK,GNQAGTFDV,-0.61 0.29 -0.40 -0.61 -0.55 -0.25,-0.35,0 of 18
GFDLNEYGIS,VIYADGMRTAYSDDVK,GEVAGTFDQ,0.07 -0.47 0.14 -0.20 -0.43 0.21,-0.11,0 of 18
GFDLDEYGIS,VIYADGMRTAYADSVK,GETAGTFDI,0.24 0.16 0.10 -0.05 0.03 0.27,0.13,1 of 18 (2.71)
GFDLEEYGIS,VIYADGQRTAYADSVK,GENAGTFDV,0.04 -0.25 -0.21 -0.55 -0.29 -0.24,-0.25,0 of 18
GFDLNEYGIS,VIYADGMRTAYANSVK,GENAGTFDV,0.55 1.02 0.96 0.33 0.27 0.64,0.63,0 of 18
GFDLNEYGIS,VIYADGVRTAYANSVK,GENAGTFDV,0.36 1.09 1.18 0.46 0.63 1.20,0.82,1 of 18 (1.22)
GFDLNEYGIS,VIYADGMRTAYADSVK,GENAGTFVV,n.d. n.d. n.d. 0.95 2.37 1.90,1.74,0 of 18
GFDLEEYGIS,VIYADGMRTAYADSVK,GNVAGTFDL,-0.19 -0.42 0.12 -0.51 -0.30 -0.26,-0.26,0 of 18
GFDLNEYGIS,VIYADGKRTAYADSVK,GENAGTFDL,-0.30 -0.12 -0.49 -0.12 -0.25 -0.22,-0.25,0 of 18
GFDLNEYGIS,VIYADGMRTAYADSVK,GNVGGTFDI,-0.08 -0.28 -0.86 -0.55 0.03 -0.70,-0.41,0 of 18
GFDLNEYGIS,VIYADGIRTAYADNVK,GNVAGTFDV,-0.26 -0.18 -0.60 -0.75 -0.64 -0.29,-0.45,0 of 18
GFDLNEYGIS,VIYADGMRTAYTDKVK,GNQAGTFDV,0.19 -0.39 0.26 -0.29 -0.17 0.52,0.02,0 of 18
GFDLDEYGIS,VIYADGMRKAYADSVK,GNVAGTFDQ,-0.40 -0.41 -0.78 -0.71 -0.74 -0.29,-0.56,1 of 18 (1.72)
GFDLNEYGIS,VIYADGQRTFYADSVK,GENAGTFDL,-0.19 -0.17 -0.36 -0.67 -0.43 -0.24,-0.34,0 of 18

Repeated from above, the 3 best binders with a signal in all replicates:

CDR-H1,CDR-H2,CDR-H3,"log10 Kd, replicates",mean log10 Kd (nM),control signals
GFDLNEYGIS,VIYADGKRTAYIDSVK,GNNAGTFDI,-1.49 -1.70 -1.71 -1.65 -2.06 -0.98,-1.60,0 of 18
GFDLDEYGIS,VIYADGMRTAYSDSVK,GTNAGTFDM,-0.70 -0.69 -0.93 -1.10 -1.10 -0.54,-0.84,0 of 18
GFDLDEYGIS,VIYADGMRTAYADSVK,GQVAGTFDV,-0.76 -0.61 -1.19 -0.58 -1.03 -0.73,-0.81,0 of 18

As a blank, each scFv also met three strains without target: over all heavy chain designs, 1% of these pairings were detected, typically at 2.08 and seldom below 0.84. The control count says in how many pairings with the empty strains this scFv gave a signal, with their mean in brackets. In the paper, a design with two or fewer of six values counts as a poor binder. The range of this assay differs from that of the first round, and the authors advise against merging the two.